Measured values taken from patent publication US20130217864A1 (HANDOK PHARMACEUTICALS, published 2013).

T1: hIL-1RI protein (human, UniProt P14778 18-332, limits assumed)
T1 construct: Analyte in the SPR experiment; also called IL-1 receptor
T1 sequence (looked up): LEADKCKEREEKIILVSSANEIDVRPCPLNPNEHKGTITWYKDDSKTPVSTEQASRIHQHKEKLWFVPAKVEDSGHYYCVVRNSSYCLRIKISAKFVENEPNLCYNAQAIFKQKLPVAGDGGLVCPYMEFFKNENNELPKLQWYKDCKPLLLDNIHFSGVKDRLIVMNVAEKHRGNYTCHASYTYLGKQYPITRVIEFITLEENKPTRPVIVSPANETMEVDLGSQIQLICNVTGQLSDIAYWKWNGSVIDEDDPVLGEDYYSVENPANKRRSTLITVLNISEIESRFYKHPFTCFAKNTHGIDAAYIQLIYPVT


Assays:
[1] = target: T1, hIL-1RI protein; test: SPR (Biacore), fusion protein amine-coupled to CM5 chip, hIL-1RI protein flowed over
Protocol: (§1) To compare the binding affinity of the IL1Ra-hyFc fusion protein and hIL-1RA fused with Fc from IgG1 to hIL-1 RI, surface plasmon resonance (SPR) value was measured using Biacore (GE Healthcare).
(§2) CM5 chip set up to Biacore and then PBS (Phosphate buffered saline, PBS) was flowed into the CM5 chip. After the confirming that the baseline of the graph remained constant, 1-ethyl-3-dimethylaminopropyl carbodiimide (EDC)/N-hydroxy succinimide (NHS) was add to the chip to activate the amine group. Next, the IL1Ra-hyFc fusion protein or hIL-1RA fused with Fc from IgG1 was introduced to the chip to fix the proteins via covalent linkage with the activated amine group followed by additional fixation using ethanol amine. Then hIL-1RI protein was introduced into the chip to measure the resonance unit (RU), which represent the binding affinity.

[2] = target: T1, hIL-1RI protein; test: SPR (Biacore), CM5 chip, fusion protein immobilised by amine coupling, receptor injected as analyte (labelled IL1R1-Fc on the sheet), 1.25-40 nM
Protocol: as §1, §2

koff [2] [s⁻¹] | kon [2] [M⁻¹ s⁻¹] | Binder | Kd [1] [nM]
0.000113 | 611000 | IL-1 receptor antagonist-hybrid Fc fusion protein (Fc fusion, also called IL1Ra-hyFc fusion protein; IL-1Ra-hyFc) RPSGRKSSKMQAFRIWDVNQKTFYLRNNQLVAGYLQGPNVNLEEKIDVVPIEPHALFLGIHGGKMCLSCVKSGDETRLQLEAVNITDLSENRKQDKRFAFIRSDSGPTTSFESAACPGWFLCTAMEADQPVSLTNMPDEGVMVTKFYFQEDEGGSRNTGRGGEEKKKEKEKEEQEERETKTPECPSHTQPLGVFLFPPKPKDTLMISRTPEVTCVVVDVSQEDPEVQFNWYVDGVEVHNAKTKPREEQFNSTYRVVSVLTVLHQDWLNGKEYKCKVSNKGLPSSIEKTISKAKGQPREPQVYTLPPSQEEMTKNQVSLTCLVKGFYPSDIAVEWESNGQPENNYKTTPPVLDSDGSFFLYSRLTVDKSRWQEGNVFSCSVMHEALHNHYTQKSLSLSLGK | 0.186
– | – | hIL-1RA fused with Fc from IgG1 (Fc fusion, human, UniProt P18510 26-177, looked up, Control fusion protein; also called IL-1 receptor antagonist fused to IgG1 Fc; hIL1RA fused to IgG1 Fc; not shown: Fc from IgG1) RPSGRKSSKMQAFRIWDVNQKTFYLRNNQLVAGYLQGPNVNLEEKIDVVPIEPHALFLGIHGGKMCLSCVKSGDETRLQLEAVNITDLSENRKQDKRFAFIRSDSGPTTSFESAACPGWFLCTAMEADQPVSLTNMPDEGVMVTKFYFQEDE | 1.02
